Results from US20040176294A1, “Use of thyroid-stimulating hormone to induce lipolysis” (priority 2003, published 2004).

Assays:
[1] = tested on: undifferentiated 3T3 L1 fibroblasts; assay: CRE-luciferase reporter (cAMP) assay in undifferentiated 3T3 L1 fibroblasts; type: cell-based, murine
Excerpt: Differentiated murine 3T3 L1 adipocytes and primary human adipocytes were used to study signal transduction of TSH. 3T3 L1 fibroblasts were differentiated into adipocytes and the cells were transduced with recombinant adenovirus containing a reporter construct, a firefly luciferase gene under the control of cAMP response element (CRE) enhancer sequences. This assay system detects cAMP-mediated gene induction downstream of activation of Gs-coupled G-protein coupled receptors (GPCR's). […] In a separate experiment, undifferentiated 3T3 L1 fibroblasts were transduced with the recombinant adenovirus. […] In another experiment, human primary adipocytes were also transduced with the recombinant adenovirus containing a reporter construct. Treatment of the human adipocytes with isoproterenol produced a 22-fold induction of luciferase expression.
3T3 L1 cells were obtained from the ATCC (CL-173, Manasas, Va.) and cultured in growth medium as follows: the cells were propagated in DMEM high glucose (Life Technologies, cat. # 11965-092) containing 10% bovine calf serum (JRH Biosciences, cat. # 12133-78P). Cells were cultured at 37° C. in an 8% CO2 humidified incubator. Cells were seeded in collagen-coated 96-well plates (Becton Dickinson, cat. # 356407) at a density of 5,000 cells per well. […]

male ob/ob mice [2] = assay: Chronic treatment of ob/ob mice: adipose tissue depot mass; type: in vivo; details: after 4 weeks of treatment, n=4
Description: (§1) 11-week old male ob/ob mice were individually caged and given a standard lab chow (4% fat) with free access to food and water. Animals were assigned to a treatment group (n=7-8, average weight 54.3+/−0.3 g per group), kept on a 12 hour dark cycle (6 PM to 6 AM), and injected each day between 7 and 9 AM. Chow consumed by each animal was weighed twice weekly. All animals received treatments IP with an injection volume of 0.1 ml. TSH was administered at 267 μg/kg, and the H3-AR agonist CL 316,243 at 0.75 mg/kg. Thyroid hormone (T4) was administered at 1.5 μg/mouse for 4 days, reduced to 1 [μg/mouse for 10 days, and returned to 1.5 μg/mouse for the next 14 days. The vehicle controls received sterile saline. TSH was obtained from Genzyme Pharmaceuticals, (Thyrogen®, catalog number 36778; Genzyme Corporation, Cambridge, Mass.), CL316,243 from Sigma Biochemicals, and T4 obtained from Calbiochem, Inc. All blood draws were performed by retro-orbital puncture under isoflurane anesthesia.
Four animals from each group were analyzed for evaluation of changes in adipose tissue depot mass after 4 weeks of treatment. Following sacrifice, brown scapular fat (IBAT) and intra-abdominal fat were dissected and the tissues weighed. […] Elevated thyroid hormone levels are known to act to stimulate]BAT. […] Mesangial fat is white adipose tissue and is only readily visualized and dissected in obese mice. […]

male ob/ob mice [3] = assay: Chronic treatment of ob/ob mice: liver steatosis histology score; type: in vivo; details: H&E sections, n=4, vehicle score 4
Description: as §1
Liver sections were dissected from all treatment groups described above and mounted in paraffin following fixation with NBS-formalin. […] The extent of liver steatosis was evaluated on a four-point scale, […], with zero displaying no signs of liver steatotosis, and 4, representing pronounced macrovesicular and microvesicular steatosis. […]

male ob/ob mice [4] = assay: Chronic treatment of ob/ob mice: intraperitoneal glucose tolerance test (IPGTT); type: in vivo; details: 4 weeks of treatment
Description: as §1
Following 4 weeks of daily treatment as described above, mice (n=4/group) were fasted for four hours immediately following the beginning of the light cycle, and a blood sample obtained before IP injection of a glucose solution (1.5 g/kg body weight). Blood samples were obtained at 20, 40, and 120 minutes following injection to evaluate changes in serum glucose and insulin. Glucose concentrations were determined with a Freestyle blood glucose monitor (Therasense Corp.), and insulin concentrations were determined with a commercial ELISA kit (Alpco Diagnostics, Windham N. H.).

Substance: TSH: ~30 kDa glycoprotein of two non-covalently linked alpha and beta subunits; Thyrogen, Genzyme Corporation
- reporter gene induction [1]: did not result in an increase in reporter gene induction
- brown scapular fat (IBAT) mass (male ob/ob mice [2]): 1.25 ± 0.13 g
- mesangial white fat depot weight (male ob/ob mice [2]): 1.11 ± 0.03 g
- average liver steatosis score (male ob/ob mice [3]): 2
- baseline blood glucose (male ob/ob mice [4]; fasted four hours, n=4): 114 ± 7 mg/dL
- insulin sensitivity and glucose clearance versus vehicle (male ob/ob mice [4]; IPGTT glucose 1.5 g/kg): exhibited increased insulin sensitivity and increased clearance of the glucose load
- serum glucose at 120 minutes post glucose injection (male ob/ob mice [4]; IPGTT glucose 1.5 g/kg): 361 ± 37 mg/dL
